In PMC7892644 (Cancer discovery, 2020):

Legend:
[1] = tested on: KRAS G12C-mutated MIA PaCa-2 xenografts; conditions: 12 or 50 mg/kg twice daily
foreskin fibroblasts = assay: cells; conditions: Fibroblast, read-out: IC50, proliferation
[2] = tested on: BRAF mutant A375 xenograft model; conditions: mouse, in vivo
[3] = tested on: NCI-H358 SOS2 knockout cells
[4] = tested on: pERK levels in RAS-mutated cell lines; assay: cells; conditions: 1 h, read-out: IC50 of pERK levels

SMILES: COc1cc2nc(C)nc(N[C@H](C)c3cc(N)cc(C(F)(F)F)c3)c2cc1O[C@H]1CCOC1 [BI-3406]
- tolerability [1]: well tolerated
- IC50 (foreskin fibroblasts): 0.037 µM
- anti-tumor response [2]: No anti-tumor response
- anti-proliferative effect [3]: enhanced
- IC50 [4]: 0.017 to 0.057 µM
